Read-outs that look alike come from different tables or passages of the source. Bounds are passed on as bounds.

For test [1], the target named is HLA-B*4001 (Homo sapiens, UniProt P01889, A65T/A93T/A95T/D138N/D98Y/E176V/E69K/N87E/Q56L/Q94N/R180L/S121R/S35A/S48T/T167S/V36M/W171L/Y33H/Y91S). Nature of the test: Class I peptide-binding assay, HLA-B*4001 (B44 supertype). Particulars: CEA-derived B44 peptides; read-out: B*4001.
Test [2] addresses HLA-B*4002 (Homo sapiens, UniProt P01889, A65T/A93T/A95T/D138N/D201E/D98Y/E176V/E204Q/E69K/K202T/N87E/Q56L/Q94N/R180L/S48T/Y33H/Y91S). The test can be described thus: Class I peptide-binding assay, HLA-B*4002 (B44 supertype). Conditions: read-out: B*4002.
Test [3] addresses HLA-B*4501 (Homo sapiens, UniProt P01889, A329T/A65T/A93T/A95T/C349S/D138N/D201E/D98Y/E176V/E187L/E204Q/E69K/H137Y/K202T/L119W/N87E/Q56L/Q94N/R155S/R180D/S121R/S35A/S48T/V127L/V306I/V36M/W191S/Y140L/Y33H/Y91S). Nature of the test: Class I peptide-binding assay, HLA-B*4501 (B44 supertype). Particulars: read-out: B*4501.
Test [4] relates to HLA-B44 supertype molecules. The test can be described thus: HLA-B44 supertype cross-binding. Particulars: number of the six B44 supertype alleles bound. Details: species or system human.
For test [5], the target named is HLA-B*4402 (Homo sapiens, UniProt P01889, A223V/A65T/A93T/A95T/D201E/D98Y/E176V/E187L/E204Q/E69K/G107R/H137Y/K202T/L105A/L119I/N104T/N87E/Q56L/Q94N/R106L/R155S/R180D/S101N/S121R/S35A/S48T/T118I/V36M/W191S/Y140D/Y91S). The test can be described thus: Class I peptide-binding assay, HLA-B*4402 (B44 supertype).
Where [6] appears, read: p53-derived B44 peptides, Table 28, dash cells.
Where [7] appears, read: MAGE2-derived B44 peptides, Table 29.
Setting [8] is: MAGE2-derived B44 peptides, Table 29, dash cells, read-out: B*4402.

As to `CC[C@H](C)[C@H](NC(=O)[C@H](Cc1ccccc1)NC(=O)[C@@H]1CCCN1C(=O)[C@H](CCCCN)NC(=O)[C@@H]1CCCN1C(=O)[C@@H]1CCCN1C(=O)[C@H](CCC(=O)O)NC(=O)[C@H](C)N)C(=O)O`, the IC50 in test [1], in test [2] (CEA-derived B44 peptides) and in test [3] (CEA-derived B44 peptides) was greater than 10 µM each time. The compound also yielded a Degeneracy in test [4] of 0.

`CC[C@H](C)[C@H](NC(=O)[C@H](CCC(=O)O)NC(=O)[C@@H]1CCCN1C(=O)[C@H](CCC(=O)O)NC(=O)[C@@H](N)CS)C(=O)N[C@@H](CCC(N)=O)C(=O)N[C@@H](CC(N)=O)C(=O)N[C@H](C(=O)N[C@H](C(=O)N[C@@H](Cc1ccc(O)cc1)C(=O)O)[C@@H](C)O)[C@@H](C)O`: the IC50 in test [1], in test [2] (CEA-derived B44 peptides) and in test [3] (CEA-derived B44 peptides) was greater than 10 µM in each case. This compound yielded a Degeneracy in test [4] of 1.

For `C[C@H](NC(=O)[C@H](CC(=O)O)NC(=O)[C@H](CCC(N)=O)NC(=O)[C@@H](NC(=O)[C@H](CCC(=O)O)NC(=O)[C@@H]1CCCN1C(=O)[C@H](CCC(=O)O)NC(=O)[C@@H](N)CS)[C@@H](C)O)C(=O)N[C@H](C(=O)N[C@@H](Cc1ccc(O)cc1)C(=O)O)[C@@H](C)O`, the IC50 in test [1], in test [2] (CEA-derived B44 peptides) and in test [3] (CEA-derived B44 peptides) was greater than 10 µM each time. The Degeneracy in test [4] is on record as 0.

With `CC[C@H](C)[C@H](NC(=O)[C@@H](NC(=O)[C@H](CCC(N)=O)NC(=O)[C@H](CCCNC(=N)N)NC(=O)[C@H](CC(N)=O)NC(=O)CNC(=O)[C@H](CC(=O)O)NC(=O)[C@@H](NC(=O)[C@H](CCCNC(=N)N)NC(=O)[C@H](CCC(=O)O)NC(=O)CN)C(C)C)[C@@H](C)CC)C(=O)O`, the IC50 in test [3] (CEA-derived B44 peptides) is greater than 10 µM. For the same compound, in test [4], the Degeneracy is 3.

Regarding `C[C@H](NC(=O)[C@H](CCC(=O)O)NC(=O)[C@@H]1CCCN1)C(=O)N[C@@H](CCC(N)=O)C(=O)N[C@@H](CC(N)=O)C(=O)N[C@H](C(=O)N[C@H](C(=O)N[C@@H](Cc1ccc(O)cc1)C(=O)O)[C@@H](C)O)[C@@H](C)O`, in test [5] (CEA-derived B44 peptides, read-out: B*4402), the IC50 was greater than 10 µM. In addition, in test [4], the Degeneracy is listed as 2.

Turning to `C[C@H](NC(=O)[C@H](CC(=O)O)NC(=O)[C@H](CCC(N)=O)NC(=O)[C@@H](NC(=O)[C@H](CCC(=O)O)NC(=O)[C@@H]1CCCN1)[C@@H](C)O)C(=O)N[C@H](C(=O)N[C@@H](Cc1ccc(O)cc1)C(=O)O)[C@@H](C)O`, the IC50 in test [1], in test [2] (CEA-derived B44 peptides) and in test [3] (CEA-derived B44 peptides) was greater than 10 µM throughout. This compound also returned a Degeneracy in test [4] of 0.

Take `CC(C)C[C@H](NC(=O)[C@H](Cc1ccc(O)cc1)NC(=O)[C@@H](NC(=O)[C@H](C)NC(=O)[C@H](CC(=O)O)NC(=O)[C@H](CCC(N)=O)NC(=O)[C@@H](NC(=O)[C@H](CCC(=O)O)NC(=O)[C@@H]1CCCN1)[C@@H](C)O)[C@@H](C)O)C(=O)N[C@@H](Cc1c[nH]c2ccccc12)C(=O)O`: the IC50 in test [1], in test [2] (CEA-derived B44 peptides) and in test [3] (CEA-derived B44 peptides) was greater than 10 µM in each case. In test [4], the Degeneracy is listed as 0.

As to `CC(C)[C@H](N)C(=O)N[C@@H](CCC(=O)O)C(=O)N[C@@H](CC(=O)O)C(=O)N[C@@H](CCCCN)C(=O)N[C@@H](CC(=O)O)C(=O)N[C@@H](C)C(=O)N[C@H](C(=O)N[C@@H](C)C(=O)N[C@@H](Cc1ccccc1)C(=O)O)C(C)C`, the IC50 in test [3] (CEA-derived B44 peptides) is greater than 10 µM. Besides, the Degeneracy in test [4] is listed as 2.

Consider `CC(C)[C@H](NC(=O)[C@@H]1CCCN1C(=O)[C@H](CC(N)=O)NC(=O)[C@H](CCC(N)=O)NC(=O)[C@@H](NC(=O)[C@H](CCC(=O)O)NC(=O)[C@@H](N)CS)[C@@H](C)O)C(=O)O` [CETQNPV], for which, in test [3] (CEA-derived B44 peptides), the IC50 was greater than 10 µM. Besides, in test [4], the Degeneracy came to 0.

On to `CC(C)C[C@H](NC(=O)[C@H](C)NC(=O)[C@@H](NC(=O)[C@H](C)NC(=O)[C@H](CC(=O)O)NC(=O)[C@H](CCC(=O)O)NC(=O)[C@H](CC(=O)O)NC(=O)[C@H](CCC(=O)O)NC(=O)[C@@H](N)C(C)C)C(C)C)C(=O)O` [VEDEDAVAL], for which, in test [3] (CEA-derived B44 peptides), the IC50 is greater than 10 µM. Also, the Degeneracy in test [4] came out at 2.

For `CC[C@H](C)[C@H](NC(=O)[C@H](CC(N)=O)NC(=O)[C@H](C)NC(=O)[C@H](CO)NC(=O)[C@@H](NC(=O)[C@@H](NC(=O)[C@H](C)NC(=O)[C@H](CCCNC(=N)N)NC(=O)[C@@H](NC(=O)[C@H](CCC(=O)O)NC(=O)[C@@H](N)CCCNC(=N)N)C(C)C)C(C)C)[C@@H](C)O)C(=O)O` [compound 482], the IC50 in test [3] (HER2/neu-derived B44 peptides, Table 27, binding to purified HLA-B*4501) was found to be 0.421 µM. Moreover, the Degeneracy in test [4] turned out to be 4.

Consider `CC(C)[C@H](NC(=O)[C@H](CC(=O)O)NC(=O)[C@@H]1CCCN1C(=O)[C@H](CCC(N)=O)NC(=O)[C@H](CC(N)=O)NC(=O)[C@@H](NC(=O)[C@H](Cc1ccc(O)cc1)NC(=O)[C@H](CCC(=O)O)NC(=O)[C@@H]1CCCN1)C(C)C)C(=O)O` [compound 569], for which, in test [5] (HER2/neu-derived B44 peptides, purified HLA-B*4402, read-out: B*4402 binding affinity), the IC50 turned out to be 0.823 µM.

`CC(C)C[C@H](NC(=O)[C@H](CC(N)=O)NC(=O)CNC(=O)[C@H](CO)NC(=O)[C@H](CO)NC(=O)[C@H](CC(=O)O)NC(=O)[C@H](CCC(=O)O)NC(=O)[C@@H](N)CC(C)C)C(=O)O` [compound 616]: the IC50 in test [5] (p53-derived B44 peptides, Table 28, dash cells, read-out: B*4402) was greater than 10 µM.

Turning to `CC(C)C[C@H](NC(=O)[C@@H]1CCCN1C(=O)[C@@H]1CCCN1C(=O)[C@H](CCC(=O)O)NC(=O)[C@@H](N)C(C)C)C(=O)N[C@@H](CO)C(=O)N[C@@H](CCC(N)=O)C(=O)N[C@@H](CCC(=O)O)C(=O)N[C@H](C(=O)O)[C@@H](C)O` [compound 622], the IC50 in test [2] (setting [6]) and in test [3] (setting [6]) was greater than 10 µM in each case.

Turning to `CC(C)C[C@H](NC(=O)[C@H](CC(N)=O)NC(=O)CNC(=O)[C@H](CCC(=O)O)NC(=O)[C@@H](N)C(C)C)C(=O)N[C@@H](CCCNC(=N)N)C(=O)N[C@H](C(=O)N[C@@H](CCC(=O)O)C(=O)N[C@@H](Cc1ccc(O)cc1)C(=O)O)C(C)C` [compound 627], the IC50 in test [2] (setting [6]) and in test [3] (setting [6]) was greater than 10 µM each time.

As to `CC(C)[C@H](NC(=O)[C@H](CCC(=O)O)NC(=O)[C@@H]1CCCN1)C(=O)NCC(=O)N[C@@H](CO)C(=O)N[C@@H](CC(=O)O)C(=O)N[C@@H](CS)C(=O)N[C@H](C(=O)N[C@H](C(=O)O)[C@@H](C)O)[C@@H](C)O` [compound 642], the IC50 in test [2] (setting [6]) and in test [3] (setting [6]) was greater than 10 µM in each case. The compound further had a Degeneracy in test [4] (p53-derived B44 peptides, Table 28) of 0.

As for `CC[C@H](C)[C@H](NC(=O)[C@H](CCCCN)NC(=O)[C@H](CCC(=O)O)NC(=O)[C@@H](N)CCC(=O)O)C(=O)N[C@@H](Cc1c[nH]c2ccccc12)C(=O)N[C@@H](CCC(=O)O)C(=O)N[C@@H](CCC(=O)O)C(=O)N[C@@H](CC(C)C)C(=O)N[C@@H](CO)C(=O)N[C@@H](CCSC)C(=O)O` [compound 662], the values for the IC50 in test [2] (setting [7]) and in test [3] (setting [7]) were 0.477 µM and 0.107 µM, respectively. This compound also yielded a Degeneracy in test [4] (setting [7]) of 5.

As to `CC(C)C[C@H](NC(=O)CNC(=O)[C@H](CC(C)C)NC(=O)[C@H](C)NC(=O)[C@H](CCC(=O)O)NC(=O)CNC(=O)[C@H](CCCNC(=N)N)NC(=O)[C@H](C)NC(=O)[C@H](CCC(=O)O)NC(=O)[C@@H](N)CC(C)C)C(=O)N[C@H](C(=O)O)C(C)C` [compound 670], the IC50 in test [5] (setting [8]) was greater than 10 µM.

`CC(C)C[C@H](NC(=O)[C@H](C)NC(=O)[C@H](CCC(=O)O)NC(=O)CNC(=O)[C@H](CCCNC(=N)N)NC(=O)[C@H](C)NC(=O)[C@H](CCC(=O)O)NC(=O)[C@@H](N)CC(C)C)C(=O)NCC(=O)O` [compound 695]: in test [5] (setting [8]), the IC50 is greater than 10 µM.

Source of the values: patent US20060094649A1, “Hla-a1,-a2,-a3,-a24,-b7, and-b44 tumor associated antigen peptides and compositions” (priority 2002, published 2006).
